The values that follow come from US10487121B2, “D-peptide inhibitors of HIV entry and methods of use” (priority 2016, dated 2019).

As a reminder, the clearance is the rate of elimination divided by the concentration. Lower therefore signals a low capacity for elimination.

For series [1] the following is noted: in vivo, cited from earlier work.
A short description of series [2]: Rat pharmacokinetics of cholesterol conjugates, Calvert study (Table 4 protocol). Particulars: in vivo, iv, 1 mg/kg. The method, then:
For PIE12 monomer conjugates, in-life studies were performed by Invitek (Hayward, Calif.). Trimeric conjugate in-life studies were performed at Navigen (Salt Lake City, Utah). […] At each timepoint, plasma was obtained using lithium heparin. […] Plasma samples were stored at −80° C. and shipped prior to bioanalysis.
The column temperature was maintained at 70° C.
Fifty microliter aliquots of plasma for each time point was precipitated with 2.5 volumes of ice-cold acetonitrile containing 2% trifluoroacetic acid (v/v) and 370 nM CPT12 as internal standard. […] The column temperature was maintained at 70° C.

With “PEGASYS: PEG-conjugated interferon with a single branched 40 kDa PEG, used in treatment of HCV”, the “extension of IV half-life compared to unconjugated interferon” value in series [1] (human, iv) was ~20 fold. The clearance slowed in series [1] (human) was 100 fold. Moreover, the “increase of circulating half-life by the 40 kDa PEG” value in series [1] was 25 fold.

For the molecule `CC(=O)N[C@H](Cc1c[nH]cn1)C(=O)N1CCC[C@@H]1C(=O)N[C@@H]1CSSC[C@H](C(=O)N[C@H](CCC(=O)O)C(=O)N[C@H](CC(C)C)C(=O)NCC(=O)N[C@H](CCCCNC(=O)CCOCCOCCOCCOCCNC(=O)CCOCC(COCCC(=O)NCCOCCOCCOCCOCCC(=O)NCCCC[C@@H](NC(=O)CNC(=O)[C@@H](CC(C)C)NC(=O)[C@@H](CCC(=O)O)NC(=O)[C@H]2CSSC[C@@H](NC(=O)[C@H]3CCCN3C(=O)[C@@H](Cc3c[nH]cn3)NC(C)=O)C(=O)N[C@H](CC(=O)O)C(=O)N[C@H](Cc3ccc(O)cc3)C(=O)N3CCC[C@@H]3C(=O)N[C@H](CCC(=O)O)C(=O)N[C@H](Cc3c[nH]c4ccccc34)C(=O)N[C@H](CCC(N)=O)C(=O)N[C@H](Cc3c[nH]c4ccccc34)C(=O)N[C@H](CC(C)C)C(=O)N2)C(N)=O)(COCCC(=O)NCCOCCOCCOCCOCCC(=O)NCCCC[C@@H](NC(=O)CNC(=O)[C@@H](CC(C)C)NC(=O)[C@@H](CCC(=O)O)NC(=O)[C@H]2CSSC[C@@H](NC(=O)[C@H]3CCCN3C(=O)[C@@H](Cc3c[nH]cn3)NC(C)=O)C(=O)N[C@H](CC(=O)O)C(=O)N[C@H](Cc3ccc(O)cc3)C(=O)N3CCC[C@@H]3C(=O)N[C@H](CCC(=O)O)C(=O)N[C@H](Cc3c[nH]c4ccccc34)C(=O)N[C@H](CCC(N)=O)C(=O)N[C@H](Cc3c[nH]c4ccccc34)C(=O)N[C@H](CC(C)C)C(=O)N2)C(N)=O)NC(=O)CCOCCOCCOCCOCCOCCOCCOCCOCCOCCOCCOCCOCCOCCOCCOCCOCCOCCOCCOCCOCCOCCOCCOCCOCCNC(=O)CCN2C(=O)CC(S[C@H]3CC[C@@]4(C)C(=CC[C@H]5[C@@H]6CC[C@H]([C@H](C)CCCC(C)C)[C@@]6(C)CC[C@@H]54)C3)C2=O)C(N)=O)NC(=O)[C@@H](CC(C)C)NC(=O)[C@@H](Cc2c[nH]c3ccccc23)NC(=O)[C@@H](CCC(N)=O)NC(=O)[C@@H](Cc2c[nH]c3ccccc23)NC(=O)[C@@H](CCC(=O)O)NC(=O)[C@H]2CCCN2C(=O)[C@@H](Cc2ccc(O)cc2)NC(=O)[C@@H](CC(=O)O)NC1=O` (stereo partly shown) [CPT24], the clearance in series [2] is 0.4 mL/min/kg.
